# Results reported in PMC9869975, “The β2-adrenergic receptor in the apical membrane of intestinal enterocytes senses sugars to stimulate glucose uptake from the gut” (Frontiers in Cell and Developmental Biology, 2023).
# Molecular target: β2-adrenergic receptor (β2-AR) (Homo sapiens, UniProt P07550)
# Parameters: gene ADRB2
compound,measurement,value
CC(C)(C)NCC(O)COc1cccc2c1CC(O)C(O)C2 (stereo not shown) [nadolol],inhibition of epinephrine (20 nM) calcium response at 200 μM,the response was blocked by classical β-AR antagonists
